Earlier results in publication PMC3989380.
pKd: −log10 of the molar value. Where two headings read alike, the source gives them in different places.

Experiments:
[1] = biological target: Connexin 32 (rCx32p216-230) (Rattus norvegicus) (UniProt P08033)
[2] = biological target: Connexin 50 (Cx50p141-166) (Homo sapiens) (UniProt P48165)
[3] = biological target: Connexin 44 (Cx44p132-153) (Ovis aries) (UniProt Q9TU17)
[4] = biological target: Connexin 44 (Cx44p132-153) (Ovis aries) (UniProt Q9TU17); remark: listed apart in the source
[5] = biological target: Connexin 50 (Cx50p141-166) (Homo sapiens) (UniProt P48165); remark: listed apart in the source
[6] = biological target: Connexin 43 (Cx43p136-158) (Homo sapiens) (UniProt P17302); experiment: dansylated CaM fluorescence

For Calmodulin (from UniProt P0DP23), the pKd [1] is given as 5.68, the pKd [2] is given as less than 5.10 and the pKd [3] is given as 7.31. For the same substance, the pKd [4] was less than 5.30, the pKd [5] was 8.31 and the pKd [6] was 6.07.
